# AlphaSeq binding of Ab-91 heavy chain variants to a spike HR2 peptide

All variants were tested on one target, the spike HR2 peptide PDVDLGDISGINAS (SARS-CoV-2).

The variants keep the light chain, the linker and the frameworks of Ab-91 (scFv order VL, three GGGGS repeats, VH).
VL: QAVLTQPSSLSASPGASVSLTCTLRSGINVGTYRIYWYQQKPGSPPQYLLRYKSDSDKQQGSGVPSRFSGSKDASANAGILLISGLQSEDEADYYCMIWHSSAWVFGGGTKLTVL
VH: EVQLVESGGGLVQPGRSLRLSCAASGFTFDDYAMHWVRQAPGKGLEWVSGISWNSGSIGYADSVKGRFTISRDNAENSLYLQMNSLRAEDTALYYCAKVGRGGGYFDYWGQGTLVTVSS

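The starting antibody came from a phage panning campaign against this peptide. Library AAYL51 holds single substitutions and randomly drawn double and triple substitutions in the CDRs. The scFvs were displayed on barcoded MATa yeast, the peptide on MATalpha yeast. Binding brings cells together so that they mate, and sequencing counts the barcode pairs among the diploids. Read counts were normalised to the haploid input and turned into Kd by a linear fit to BCL2-family pairs of known affinity, for each replicate. Each pool was mated in three replicate cultures.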

The parent's heavy chain CDRs are GFTFDDYAMH, GISWNSGSIGYADSVK, VGRGGGYFDY; each variant's own CDRs replace them letter for letter.
Numbers give log10(Kd / nM), so 0 is 1 nM and 3 is 1 µM. Smaller is tighter.
Replicates are averaged; those with no signal do not enter the mean.
A pair that was not seen in any replicate is written "no signal"; this usually means weak binding, but a binder can also be missed.

mean, log10 nM | replicates with signal | control signals | CDR-H1 | CDR-H2 | CDR-H3
5.21 | 2 of 3 | 3 of 9 | FFTFDDYAMH | GISWNSGSIGYADSVK | VGRCGGYYDY
4.86 | 3 of 3 | 6 of 9 | GFTLDDYAMH | GISWNSGSIGYADSVK | VNRRGGYFDY
4.89 | 2 of 3 | 3 of 9 | GTTFLDYAMH | GISWNSGSIGYADSCK | VGRGGGYFDY
4.62 | 1 of 3 | 3 of 9 | GFTFDDYAMH | GISWNSGSIGYADSVK | VVVGGGYFDL
4.08 | 2 of 3 | 5 of 9 | GFPFDDYAMH | GISWVSGSIGYADSVK | VGRGGGYFDN
4.63 | 1 of 3 | 3 of 9 | GFTFRMYAMH | GPSWNSGSIGYADSVK | VGRGGGYFDY
no signal | 0 of 3 | 0 of 9 | GFTFDDYAMH | GIQWNSGSIGYADQVK | VGRGGGLFDY
no signal | 0 of 3 | 0 of 9 | GFTFDDYAMH | GISWNSWSIGYADSVQ | VGRGGGRFDY
no signal | 0 of 3 | 0 of 9 | GFTFDDYAMH | GISENSGKIGYADSVK | VGRGGGYQDY
no signal | 0 of 3 | 0 of 9 | GFTFDDYAMH | GISWNSGSIGYADSVK | VGRGGKCFDY
4.42 | 3 of 3 | 6 of 9 | LFTFDDYAMH | GISWNSGSIGYADSVK | IGRGGGYFDY
4.78 | 1 of 3 | 0 of 9 | GFTFDDYASH | GIIWNSGSIGYADSYK | VGRGGGYFDY
no signal | 0 of 3 | 0 of 9 | GFTFDDYAMH | GISWNSGSIGYNDSVK | VGIGHGYFDY
4.07 | 1 of 3 | 1 of 9 | GFTFDDYAMH | GISWNSMSIGYADSVK | VGRHSGYFDY
no signal | 0 of 3 | 0 of 9 | WFTFDDYAMH | GISWNSGSGGYADSVK | VGRGGGYFDY
5.05 | 1 of 3 | 1 of 9 | GFTFDDYAMH | GISWNSGSIGYADFVK | VYRGGGYVDY
4.98 | 3 of 3 | 5 of 9 | GFTFDDYAMD | GISWNSGSIGYADSVK | MGDGGGYFDY
2.71 | 3 of 3 | 4 of 9 | GFTFWDYAMH | GISWNSGSIGYADSVK | VGHGGGYFDY
4.11 | 2 of 3 | 1 of 9 | GFTFDDYAMH | GISWHSGHIGYADSVK | VGRGGGYFDY
4.57 | 1 of 3 | 2 of 9 | GFTFDDYAMH | DISWNDGSIGYADSVK | VGRGGGYFFY
4.97 | 3 of 3 | 5 of 9 | GFTFDDYAMH | GISWNSGSIDYADSVK | CRRGGGYFDY
6.38 | 2 of 3 | 5 of 9 | GFTFIDDAMF | GISWNSGSIGYADSVK | VGRGGGYFDY
2.94 | 1 of 3 | 0 of 9 | GFTLMDYAMH | GISWNSGSIGYADSVK | VIRGGGYFDY
1.10 | 3 of 3 | 3 of 9 | GFTFDDYAMH | GISWNSGSIGYADYVK | VSRGGGHFDY
no signal | 0 of 3 | 4 of 9 | GFTFDDYAMH | GISWNSGSIGYADKVK | VPRGGGFFDY
4.09 | 1 of 3 | 3 of 9 | GFTFDDYAMH | GISYNSGSFGYADSVK | VGRGGGYYDY
6.21 | 1 of 3 | 0 of 9 | GFTFIDYAMH | GISWNTGCIGYADSVK | VGRGGGYFDY
3.84 | 1 of 3 | 0 of 9 | GFTFDDQAMH | GISQNSGSEGYADSVK | VGRGGGYFDY
no signal | 0 of 3 | 2 of 9 | HFEFDDYAMH | GISWNSGSIGYADSVK | VGRKGGYFDY
no signal | 0 of 3 | 1 of 9 | GFTFDDYAMH | GIFWNSGSIGYRDSVK | WGRGGGYFDY
no signal | 0 of 3 | 1 of 9 | GFTFDDYAMH | GISWNSGSIGYACSVK | VGRGMGYKDY
4.29 | 2 of 3 | 5 of 9 | GFTFEDYAMH | GISWGSGSIGQADSVK | VGRGGGYFDY
3.69 | 1 of 3 | 1 of 9 | GFTFDHYAMH | GISWNSGSIGRADSMK | VGRGGGYFDY
3.99 | 1 of 3 | 2 of 9 | GFTFDDYWMH | GISWNSGYIGYADSVK | VGRGGGYFDW
no signal | 0 of 3 | 0 of 9 | GFTFDDYAMH | GISWNSGSHGYAWSVK | VGRCGGYFDY
no signal | 0 of 3 | 0 of 9 | GFTFDDYAMH | FIFWNSGSIGYADSVK | VGRGGGYFDY
no signal | 0 of 3 | 1 of 9 | GFTFDDYKMH | GISWNSGSIGYAKSVK | KGRGGGYFDY
no signal | 0 of 3 | 0 of 9 | GFTFDDYPMH | GISWNSGSIGYAMSVK | VGRGGGYFKY
no signal | 0 of 3 | 0 of 9 | GFTFDDYAMH | WIYWNSGSRGYADSVK | VGRGGGYFDY
no signal | 0 of 3 | 0 of 9 | GFTFDDYAMH | GISGNSGPIGYADSDK | VGRGGGYFDY
no signal | 0 of 3 | 0 of 9 | GFTFDDYAMM | MISWNSGSIGYADSVK | VMRGGGYFDY
5.54 | 3 of 3 | 7 of 9 | GVTFLDYAMH | GISWNSGSIGYADSVK | VGRGGGGFDY
no signal | 0 of 3 | 3 of 9 | GFTFKDYAMH | GISWVSGSIGYADSVK | VGRGGKYFDY
5.50 | 1 of 3 | 0 of 9 | GFTFDDYAMH | GISWNYGSIGYADSVK | YCRGGGYFDY
no signal | 0 of 3 | 3 of 9 | GFTFDDYAMH | GISWNSGSIGYGDSVK | VSRGGGYFDY
4.60 | 2 of 3 | 3 of 9 | GFTFDSYAMH | GGNWNSGSIGYADSVK | VGRGGGYFDY
5.61 | 2 of 3 | 4 of 9 | GFTFDDGAMH | GISWNSGSIGYADSVK | VGRRGGYFDY
3.83 | 1 of 3 | 0 of 9 | GFTFDDYAMH | PISWNSGSIGYADSVK | VDRGGGYFGY
no signal | 0 of 3 | 1 of 9 | WFTFDDYAMF | GISRNSGSIGYADSVK | VGRGGGYFDY
5.23 | 2 of 3 | 7 of 9 | GFTFDDYAMH | GISGSSGSIGYADSQK | VGRGGGYFDY
3.67 | 3 of 3 | 3 of 9 | GFYFDDYAMH | GISWGSGSIGYADSVK | VGRGGGYFDY

Repeated from above, the 4 best binders with a signal in all replicates:

CDR-H1 | CDR-H2 | CDR-H3 | mean, log10 nM | replicates with signal | control signals
GFTFDDYAMH | GISWNSGSIGYADYVK | VSRGGGHFDY | 1.10 | 3 of 3 | 3 of 9
GFTFWDYAMH | GISWNSGSIGYADSVK | VGHGGGYFDY | 2.71 | 3 of 3 | 4 of 9
GFYFDDYAMH | GISWGSGSIGYADSVK | VGRGGGYFDY | 3.67 | 3 of 3 | 3 of 9
LFTFDDYAMH | GISWNSGSIGYADSVK | IGRGGGYFDY | 4.42 | 3 of 3 | 6 of 9

Parent in this assay: reference entry 1.86, copy in this library 0.88.
Three control strains display no target. For library AAYL51, 21% of the pairings with them gave a signal, with a median of 4.54 and one signal in twenty below 3.26, so weak values seen in few replicates may be background. The control count says in how many pairings with the empty strains this scFv gave a signal.

Source: Engelhart et al. 2022 (doi:10.1038/s41597-022-01779-4), MIT Lincoln Laboratory and A-Alpha Bio; data file from the FLAb repository.